Laboratory results published in article PMC8931498, “Drug Transporters ABCB1 (P-gp) and OATP, but not Drug-Metabolizing Enzyme CYP3A4, Affect the Pharmacokinetics of the Psychoactive Alkaloid Ibogaine and its Metabolites” (Frontiers in Pharmacology, 2022).
“And” between values parts separate entries of the source, which are not always exact repeats. Identical values can stand only once.

Experiments:
[1] = Plasma pharmacokinetics over 2 h after oral ibogaine in wild-type, Abcg2-/- and Abcb1a/1b;Abcg2-/- mice; type: in vivo; settings: oral 10 mg/kg ibogaine; for Cmax / Tmax / AUC0-2h: plasma; for Cmax / Tmax: 2 h experiment; for Cmax / AUC0-2h: mean ± SD; for Tmax: median (range); for AUC0-2h: n = 7
Protocol: (§1) To study the influence of drug uptake and efflux transporters on the pharmacokinetics of ibogaine and its metabolites, we conducted a 2 h experiment, while for the assessment of CYP3A impact, the experiments were terminated at 8 h. In each experiment, six to seven mice were used per strain. Ibogaine dissolved in DMSO:saline vehicle (1:9, v/v) was orally administered to the mice by gavage into the stomach, using a blunt-ended needle, at a single dose of 10 mg/kg (10 μL/g body weight). To reduce variation in absorption upon oral administration, mice were fasted for 2–3 h before dosing. Approximately 50 μL of blood was collected from the tip of the tail in heparinized capillary tubes (Sarstedt AG & Co., Nümbrecht, Germany) at 0.125, 0.25, 0.5 and 1 h (2 h experiment), or 0.25, 0.5, 1, 2, and 4 h (8 h experiment). For the 8 h experiment, 2 h after ibogaine administration, mice had ad libitum supply of standard chow and water again. At either 2 or 8 h after dosing, mice were deeply anesthetized with isoflurane (3%), followed by cardiac puncture to collect blood (at least 600 μL) in Eppendorf tubes using heparin as an anticoagulant. The mice were then sacrificed by cervical dislocation, and tissues including the brain, liver (without gallbladder), kidneys, spleen, small intestine together with the fecal content (SIWC), heart, and subcutaneous inguinal white adipose tissue were collected and weighed. For the 2 h experiment, the gallbladder with content was also (separately) collected in an Eppendorf tube and weighed. Plasma was obtained from blood samples by centrifugation at 9,000 g for 6 min at 4 °C. Tissue homogenates (except gallbladder) were obtained using the Fast Prep-24 5G homogenizer (MP Biomedicals Inc., Santa Ana, CA, United States). Before homogenization, Bovine Serum Albumin (BSA, Fraction V) was dissolved at a concentration of 2% (w/v) in distilled water. Three mL of ice-cold 2% BSA were added to liver and SIWC; 2 ml to kidneys; 1 ml to brain, spleen, and heart; and 2–3 ml to the white adipose tissue (depending on the tissue weight). For the gallbladder, 150 μL of 2% BSA was added; then, the samples were centrifuged (9,000 x g, 4°C, 6 min), and only the supernatant was collected for analysis. Both plasma and tissue samples were kept at −70°C in amber-colored Eppendorf tubes until analysis.
(§2) Ibogaine, noribogaine, and noribogaine glucuronide concentrations in plasma and tissue samples were determined using a liquid chromatography with tandem mass spectrometry (LC-MS/MS) method, validated for human plasma, mouse plasma, and mouse tissues. Since the concentration of ibogaine and its metabolites can rapidly decline at room temperature with daylight exposure, special attention was paid during sample handling to avoid photodegradation of the compounds.
(§3) A volume of 50 µL human plasma sample, a 5-fold diluted mouse plasma sample (10 uL + 40 uL control human plasma), or 100 µL homogenized tissue sample were processed. For the quantification, stable isotope labelled internal standards (IS) Ibogaine-^13C-d3 (for ibogaine) and Noribogaine-d4 (for noribogaine and noribogaine glucuronide) were used. To the 50 uL plasma samples, 20 uL of a working solution containing both internal standards at a concentration of 10 ng/ml in methanol (WIS10) was added. Sample pre-treatment involved protein precipitation with 150 uL of acetonitrile-methanol (1:1, v/v). For the tissue homogenates (100 uL sample aliquots), 40 uL of WIS10 was added, and 300 uL precipitation reagent as sample cleanup. After centrifuging the samples (10 min, 4°C, 15,000 x g), 100 µL of the supernatant was transferred to an amber-colored autosampler vial with insert. Then 100 µL of 4 mM ammonium formate pH 3.5 in water was added, and after vortex mixing, the extracts were injected (5 uL) onto a UPLC system (Acquity UPLC I-Class IVD system, Waters, Milford, MA, United States) equipped with an Acquity UPLC HSS T3 Column (150 × 2.1 mm ID, 1.8 µm). […]

[2] = in 24 h in rats; ref Mačiulaitis et al., 2008; cited from earlier work
[3] = Tissue distribution 2 h after oral ibogaine in wild-type, Abcg2-/- and Abcb1a/1b;Abcg2-/- mice; type: in vivo
Protocol: as §1, §2, §3

[4] = Plasma pharmacokinetics over 2 h after oral ibogaine in wild-type, Oatp1a/1b-/-, Oatp1a/1b-/-;1B1tg and Oatp1a/1b-/-;1B3tg mice; type: in vivo; settings: oral 10 mg/kg ibogaine; for Cmax / Tmax / AUC0-2h: plasma; for Cmax / Tmax: 2 h experiment; for Cmax / AUC0-2h: mean ± SD; for Tmax: median (range); for AUC0-2h: n = 7
Protocol: as §1, §2, §3

[5] = Tissue accumulation 2 h after oral ibogaine in wild-type and Oatp1a/1b-deficient mouse strains; type: in vivo; settings: Oatp1a/1b-/- mice compared to WT; tissue concentration relative to plasma AUC0-2h; oral 10 mg/kg ibogaine
Protocol: To study the influence of drug uptake and efflux transporters on the pharmacokinetics of ibogaine and its metabolites, we conducted a 2 h experiment, while for the assessment of CYP3A impact, the experiments were terminated at 8 h. In each experiment, six to seven mice were used per strain. Ibogaine dissolved in DMSO:saline vehicle (1:9, v/v) was orally administered to the mice by gavage into the stomach, using a blunt-ended needle, at a single dose of 10 mg/kg (10 μL/g body weight). To reduce variation in absorption upon oral administration, mice were fasted for 2–3 h before dosing. […]
Ibogaine, noribogaine, and noribogaine glucuronide concentrations in plasma and tissue samples were determined using a liquid chromatography with tandem mass spectrometry (LC-MS/MS) method, validated for human plasma, mouse plasma, and mouse tissues. […]
A volume of 50 µL human plasma sample, a 5-fold diluted mouse plasma sample (10 uL + 40 uL control human plasma), or 100 µL homogenized tissue sample were processed. For the quantification, stable isotope labelled internal standards (IS) Ibogaine-^13C-d3 (for ibogaine) and Noribogaine-d4 (for noribogaine and noribogaine glucuronide) were used. […]

[6] = Observation of abnormal behavior or signs of acute toxicity after oral ibogaine; type: in vivo, mice; settings: oral 10 mg/kg ibogaine; whole 8 h experiment and 2 h experiments; all studied mouse strains
Protocol: To study the influence of drug uptake and efflux transporters on the pharmacokinetics of ibogaine and its metabolites, we conducted a 2 h experiment, while for the assessment of CYP3A impact, the experiments were terminated at 8 h. In each experiment, six to seven mice were used per strain. Ibogaine dissolved in DMSO:saline vehicle (1:9, v/v) was orally administered to the mice by gavage into the stomach, using a blunt-ended needle, at a single dose of 10 mg/kg (10 μL/g body weight). To reduce variation in absorption upon oral administration, mice were fasted for 2–3 h before dosing. Approximately 50 μL of blood was collected from the tip of the tail in heparinized capillary tubes (Sarstedt AG & Co., Nümbrecht, Germany) at 0.125, 0.25, 0.5 and 1 h (2 h experiment), or 0.25, 0.5, 1, 2, and 4 h (8 h experiment). For the 8 h experiment, 2 h after ibogaine administration, mice had ad libitum supply of standard chow and water again. At either 2 or 8 h after dosing, mice were deeply anesthetized with isoflurane (3%), followed by cardiac puncture to collect blood (at least 600 μL) in Eppendorf tubes using heparin as an anticoagulant. […]

[7] = ref Luz and Mash, 2021; cited from earlier work
[8] = Abcb1a/1b;Abcg2-/- mice compared to WT, 2 h after oral 10 mg/kg ibogaine

ibogaine [reference compound]
Fold increase AUC0-2h ([1]; Abcb1a/1b;Abcg2-/- mice vs wild-type): 2.3
Fold increase AUC0-2h ([1]; Abcg2-/- mice vs wild-type): 1.4
Cmax ([1]; Abcb1a/1b;Abcg2-/- mice): 15.92 ± 9.16 ng/mL
Tmax ([1]; Abcb1a/1b;Abcg2-/- mice): 0.25 (0.125–0.25) h
Cmax ([1]; Abcg2-/- mice): 9.15 ± 3.69 ng/mL
Tmax ([1]; Abcg2-/- mice): 0.125 (0.125–0.50) h
AUC0-2h ([1]; female Abcb1a/1b;Abcg2-/- mice): 15.2 ± 8.06 ^* h*ng/mL
AUC0-2h ([1]; female Abcg2-/- mice): 9.35 ± 3.47 ng·h/mL
AUC0-2h ([1]; female wild-type mice): 6.48 ± 2.40 ng·h/mL
Cmax ([1]; wild-type mice): 4.92 ± 2.34 ng/mL
Tmax ([1]; wild-type mice): 0.25 (0.125–2) h
Fold increase AUC0-2h ([1]; wild-type mice (reference)): 1.0
excreted via urine and feces, % of the administered dose [2]: 60–70%
fold increase in brain-to-plasma ratio [3, 8]: 1.5 fold
fold increase in heart-to-plasma ratio [3, 8]: 1.3 fold
fold increase in kidney-to-plasma ratio [3, 8]: 1.6 fold
fold decrease in total amount (% of dose) in SIWC corrected for plasma AUC over 2 h ([3]; Abcb1a/1b;Abcg2-/- mice compared to WT, small intestine with fecal content, oral 10 mg/kg ibogaine, 10 mg/kg): ~2 fold and 2.2 fold
brain-to-plasma ratio ([3]; Abcb1a/1b;Abcg2-/- mice, 2 h after oral 10 mg/kg ibogaine): 5.2
adipose tissue-to-plasma distribution ratio ([3]; WT mice, inguinal white adipose tissue, 2 h after oral 10 mg/kg ibogaine): 45.3
brain-to-plasma ratio ([3]; wild-type mice, 2 h after oral 10 mg/kg ibogaine, 10 mg/kg): 3.4 and > 3
Fold increase AUC0-2h ([4]; Oatp1a/1b-/- mice vs wild-type): 2.1
Fold increase AUC0-2h ([4]; Oatp1a/1b-/-;1B1tg mice vs wild-type): 2.3
Fold increase AUC0-2h ([4]; Oatp1a/1b-/-;1B3tg mice vs wild-type): 1.6
Cmax ([4]; Oatp1a/1b-/- mice): 13.6 ± 8.6 ng/mL
Tmax ([4]; Oatp1a/1b-/- mice): 0.125 (0.125–0.50) h
Cmax ([4]; Oatp1a/1b-/-;1B1tg mice): 18.3 ± 15.0 ng/mL
Tmax ([4]; Oatp1a/1b-/-;1B1tg mice): 0.125 h
Cmax ([4]; Oatp1a/1b-/-;1B3tg mice): 18.0 ± 17.7 ng/mL
Tmax ([4]; Oatp1a/1b-/-;1B3tg mice): 0.125 (0.125–0.25) h
AUC0-2h ([4]; female Oatp1a/1b-/- mice): 13.6 ± 6.97 ng·h/mL
AUC0-2h ([4]; female Oatp1a/1b-/-;1B1tg mice): 14.7 ± 11.3 ng·h/mL
AUC0-2h ([4]; female Oatp1a/1b-/-;1B3tg mice): 10.6 ± 8.27 ng·h/mL
AUC0-2h ([4]; female wild-type mice): 6.48 ± 2.40 ng·h/mL
Cmax ([4]; wild-type mice): 4.92 ± 2.34 ng/mL
Tmax ([4]; wild-type mice): 0.25 (0.125–2) h
Fold increase AUC0-2h ([4]; wild-type mice (reference)): 1.0
fold reduction in liver accumulation [5]: > 2 fold
abnormal behavior or signs of acute toxicity (such as tremors or flat body posture) [6]: no abnormal behavior or signs of acute toxicity
half-life in plasma [7]: 2 to 6 h
